Results taken from PMC9797988.

Molecular target: GST-LC3B (human) (UniProt Q9GZQ8)
Assay: pull-down

fold increase of binding against wild-type TNIP1: 3.4 fold
Substance: myc-TNIP1-S122E/S123E, 35S-labelled (from UniProt Q15025-1 1-636) (natural protein)
